Test results as given in ChEMBL document CHEMBL3392969, “SAR156497, an exquisitely selective inhibitor of aurora kinases” (J Med Chem, 2015).

Chains of the proteins cited; added tags and fusions are not shown.
UniProt Q96GD4, whole entry: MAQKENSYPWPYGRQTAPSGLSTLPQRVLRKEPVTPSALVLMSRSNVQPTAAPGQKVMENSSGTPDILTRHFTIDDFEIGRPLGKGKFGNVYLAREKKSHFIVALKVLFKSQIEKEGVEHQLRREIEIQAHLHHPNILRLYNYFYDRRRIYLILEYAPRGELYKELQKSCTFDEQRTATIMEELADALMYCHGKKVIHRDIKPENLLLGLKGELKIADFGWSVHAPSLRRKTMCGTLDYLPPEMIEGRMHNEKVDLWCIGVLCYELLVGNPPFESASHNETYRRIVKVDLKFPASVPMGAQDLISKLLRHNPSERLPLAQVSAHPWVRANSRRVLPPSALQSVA

Target: Aurora kinase B (Homo sapiens, UniProt Q96GD4)

Nc1nc(O)c2c(n1)NC1=C(C(=O)CCC1)C2c1ccc(Sc2nc3ccccc3[nH]2)o1 (racemic)
IC50: > 10 µM
